Assay results as given in patent US20040092438A1, “Gd3-synthesis inhibitors for treating neuropathological disorders” (priority 1999, published 2004).

Tested on: focal cerebral ischemia
Details: single i.p. 100 mg/kg with piperonyl butoxide 400 mg/kg, 15 min after MCA occlusion; 24 h after 90-minute occlusion

## CCCCCCCCCC(=O)N[C@H](CN1CCOCC1)[C@H](O)c1ccccc1 [D-PDMP, D-threo-1-phenyl-2-decanoylamino-3-morpholino-1-propanol]
  infarct volume (average ischemic lesion volume): 6.01±2.10 mm^3
